Publication PMC13070491, “Single-nucleus transcriptomics, pharmacokinetics, and pharmacodynamics of CDK4/6 and mTOR inhibition in a Phase 0/1 trial of recurrent high-grade glioma” (Neuro-Oncology, 2025)

System: GB126, GB239 and GB86 patient-derived cell lines
Assay: In vitro single-cell RNA sequencing, analyses across the cell lines (pseudobulk differential gene expression, GSEA, non-cycling cells)
Format: cell-based, human
Experimental: Patient-derived glioma stem cell lines (GSCs; GB126, GB86, and GB239) were established from resected GBM tumor tissue. Cell lines were genetically profiled for mutations and copy number aberrations using the IvySeq custom gene panel. […] GB239 was derived from a tumor sample included in this Phase 0 trial (tumor sample: 100-0039). All human GSCs were cultured as described previously.[12]
Following the fifth day of drug exposure, cells were harvested, cryopreserved to be processed at a later point, or immediately processed for single-cell RNA sequencing (10x Genomics, 3’ version 3). The single-cell RNA sequencing data were then processed via cellranger count and Seurat. Briefly, cells were filtered out based on the following criteria: minimum number of genes detected >500 and <10 000 with a maximum percentage of mitochondrial genes set to 10%. Statistical assessment was made between the malignant proportions of each cell state using a 2-sided paired t-test.
Descriptive statistics of the clinical data are included in Table 1. Comparisons between groups were conducted using a 2-sided or paired 2-sided t-test, where indicated. P < .05 was considered significant. Multiple hypothesis test corrections (ie, false discovery rate correction) were applied for snRNAseq pseudobulk differential expression analysis.

Structure (SMILES): CN(C)C(=O)c1cc2cnc(Nc3ccc(N4CCNCC4)cn3)nc2n1C1CCCC1 [ribo]
- log2FoldChange (feature TP53AIP1, ribociclib versus control (DMSO)): 1.033
- log2FoldChange (feature TRIM38, ribociclib versus control (DMSO)): 1.064
- log2FoldChange (feature TRPC7-AS1, ribociclib versus control (DMSO)): 1.034
- log2FoldChange (feature TSGA10IP, ribociclib versus control (DMSO)): 1.063
- log2FoldChange (feature TTC29, ribociclib versus control (DMSO)): 1.023
- log2FoldChange (feature TYRP1, ribociclib versus control (DMSO)): 1.296
- log2FoldChange (feature WNK4, ribociclib versus control (DMSO)): 1.104
- log2FoldChange (feature WNT2, ribociclib versus control (DMSO)): 1.245
- log2FoldChange (feature Z80897.1, ribociclib versus control (DMSO)): 1.151
- log2FoldChange (feature Z82195.3, ribociclib versus control (DMSO)): 1.024
- log2FoldChange (feature Z93403.1, ribociclib versus control (DMSO)): 1.02
- log2FoldChange (feature Z99774.1, ribociclib versus control (DMSO)): 1.047
- log2FoldChange (feature ZBTB20-AS2, ribociclib versus control (DMSO)): 1.2872
- log2FoldChange (feature ZBTB20-AS3, ribociclib versus control (DMSO)): 1.215
- log2FoldChange (feature ZG16B, ribociclib versus control (DMSO)): 1.184
- log2FoldChange (feature ZNF630-AS1, ribociclib versus control (DMSO)): 1.111
- log2FoldChange AC002472.1 (gene AC002472.1, ribociclib versus control (DMSO)): 1.35
- log2FoldChange AC004470.1 (gene AC004470.1, ribociclib versus control (DMSO)): 1.412
- log2FoldChange (gene AC005180.2, ribociclib versus control (DMSO)): -1.1
- log2FoldChange AC007317.1 (gene AC007317.1, ribociclib versus control (DMSO)): 1.365
- log2FoldChange (gene AC007952.4, ribociclib versus control (DMSO)): -1.0063
- log2FoldChange AC008397.1 (gene AC008397.1, ribociclib versus control (DMSO)): 1.402
- log2FoldChange (gene AC008543.1, ribociclib versus control (DMSO)): -1.176
- log2FoldChange (gene AC008750.7, ribociclib versus control (DMSO)): -1.123
- log2FoldChange (gene AC010173.1, ribociclib versus control (DMSO)): -1.123
- log2FoldChange AC010395.1 (gene AC010395.1, ribociclib versus control (DMSO)): 1.368
- log2FoldChange AC010503.1 (gene AC010503.1, ribociclib versus control (DMSO)): 1.351
- log2FoldChange (gene AC012073.1, ribociclib versus control (DMSO)): -1.039
- log2FoldChange (gene AC017006.2, ribociclib versus control (DMSO)): 1.009
- log2FoldChange AC018638.6 (gene AC018638.6, ribociclib versus control (DMSO)): 1.414
- log2FoldChange (gene AC020551.1, ribociclib versus control (DMSO)): 1.009
- log2FoldChange (gene AC022182.2, ribociclib versus control (DMSO)): 1.017
- log2FoldChange AC022816.1 (gene AC022816.1, ribociclib versus control (DMSO)): 1.4
- log2FoldChange AC023282.1 (gene AC023282.1, ribociclib versus control (DMSO)): 1.352
- log2FoldChange AC024382.1 (gene AC024382.1, ribociclib versus control (DMSO)): 1.406
- log2FoldChange (gene AC024901.1, ribociclib versus control (DMSO)): 1
- log2FoldChange AC024996.1 (gene AC024996.1, ribociclib versus control (DMSO)): 1.387
- log2FoldChange (gene AC051619.8, ribociclib versus control (DMSO)): -1.008
- log2FoldChange (gene AC068633.1, ribociclib versus control (DMSO)): 1.016
- log2FoldChange (gene AC078785.2, ribociclib versus control (DMSO)): 1.014
- log2FoldChange AC079304.1 (gene AC079304.1, ribociclib versus control (DMSO)): 1.388
- log2FoldChange AC079382.2 (gene AC079382.2, ribociclib versus control (DMSO)): 1.354
- log2FoldChange AC079822.1 (gene AC079822.1, ribociclib versus control (DMSO)): 1.431
- log2FoldChange AC083837.1 (gene AC083837.1, ribociclib versus control (DMSO)): 1.339
- log2FoldChange (gene AC090192.2, ribociclib versus control (DMSO)): 1.011
- log2FoldChange AC090791.1 (gene AC090791.1, ribociclib versus control (DMSO)): 1.427
- log2FoldChange AC091979.1 (gene AC091979.1, ribociclib versus control (DMSO)): 1.343
- log2FoldChange AC092155.1 (gene AC092155.1, ribociclib versus control (DMSO)): 1.397
- log2FoldChange (gene AC097515.1, ribociclib versus control (DMSO)): 1.0019
- log2FoldChange AC099670.3 (gene AC099670.3, ribociclib versus control (DMSO)): 1.409
- log2FoldChange (gene AC104825.1, ribociclib versus control (DMSO)): 1.004
- log2FoldChange (gene AC106820.6, ribociclib versus control (DMSO)): -1.037
- log2FoldChange (gene AC109347.2, ribociclib versus control (DMSO)): -1.1248
- log2FoldChange (gene AC110058.1, ribociclib versus control (DMSO)): 1.015
- log2FoldChange AC131212.1 (gene AC131212.1, ribociclib versus control (DMSO)): 1.427
- log2FoldChange (gene AC137561.1, ribociclib versus control (DMSO)): 1.012
- log2FoldChange (gene AC138647.1, ribociclib versus control (DMSO)): -1.219
- log2FoldChange (gene AC145212.1, ribociclib versus control (DMSO)): 1.01
- log2FoldChange (gene AC244517.1, ribociclib versus control (DMSO)): 1.017
- log2FoldChange AC244636.3 (gene AC244636.3, ribociclib versus control (DMSO)): 1.403
- log2FoldChange (gene ADAMTS9-AS1, ribociclib versus control (DMSO)): 1.0086
- log2FoldChange (gene AGBL5-AS1, ribociclib versus control (DMSO)): -1.023
- log2FoldChange (gene AGT, ribociclib versus control (DMSO)): 1.003
- log2FoldChange AL022316.1 (gene AL022316.1, ribociclib versus control (DMSO)): 1.386
- log2FoldChange (gene AL022341.2, ribociclib versus control (DMSO)): -1.05
- log2FoldChange (gene AL031710.2, ribociclib versus control (DMSO)): -1.373
- log2FoldChange AL049836.1 (gene AL049836.1, ribociclib versus control (DMSO)): 1.378
- log2FoldChange AL049838.1 (gene AL049838.1, ribociclib versus control (DMSO)): 1.369
- log2FoldChange (gene AL133215.2, ribociclib versus control (DMSO)): -1.053
- log2FoldChange AL139081.1 (gene AL139081.1, ribociclib versus control (DMSO)): 1.4212
- log2FoldChange AL356010.2 (gene AL356010.2, ribociclib versus control (DMSO)): 1.378
- log2FoldChange (gene AL356481.3, ribociclib versus control (DMSO)): -1.0513
- log2FoldChange AL590235.2 (gene AL590235.2, ribociclib versus control (DMSO)): 1.403
- log2FoldChange AL592430.1 (gene AL592430.1, ribociclib versus control (DMSO)): 1.383
- log2FoldChange AL929091.1 (gene AL929091.1, ribociclib versus control (DMSO)): 1.363
- log2FoldChange (gene ANP32B, ribociclib versus control (DMSO)): -1.006
- log2FoldChange (gene AP000866.5, ribociclib versus control (DMSO)): 1.003
- log2FoldChange (gene AP000944.7, ribociclib versus control (DMSO)): -1.045
- log2FoldChange (gene AP001172.2, ribociclib versus control (DMSO)): 1.008
- log2FoldChange AP003464.1 (gene AP003464.1, ribociclib versus control (DMSO)): 1.389
- log2FoldChange AP003486.2 (gene AP003486.2, ribociclib versus control (DMSO)): 1.428
- log2FoldChange (gene ARHGAP11B, ribociclib versus control (DMSO)): -1.378
- log2FoldChange (gene ARHGAP33, ribociclib versus control (DMSO)): -1.179
- log2FoldChange (gene ARHGDIG, ribociclib versus control (DMSO)): 1.01
- log2FoldChange (gene AS3MT, ribociclib versus control (DMSO)): -1.024
- log2FoldChange ATP13A4-AS1 (gene ATP13A4-AS1, ribociclib versus control (DMSO)): 1.408
- log2FoldChange (gene B4GALNT1, ribociclib versus control (DMSO)): -1.03
- log2FoldChange (gene BAIAP2L1, ribociclib versus control (DMSO)): -1.14
- log2FoldChange CA10 (gene CA10, ribociclib versus control (DMSO)): 1.3411
- log2FoldChange (gene CACNG5, ribociclib versus control (DMSO)): -1.03
- log2FoldChange CADM2-AS1 (gene CADM2-AS1, ribociclib versus control (DMSO)): 1.356
- log2FoldChange (gene CARHSP1, ribociclib versus control (DMSO)): -1.0365
- log2FoldChange CCDC155 (gene CCDC155, ribociclib versus control (DMSO)): 1.343
- log2FoldChange (gene CCN4, ribociclib versus control (DMSO)): 1.016
- log2FoldChange (gene CDC7, ribociclib versus control (DMSO)): -1.142
- log2FoldChange CDSN (gene CDSN, ribociclib versus control (DMSO)): 1.422
- log2FoldChange (gene CENPI, ribociclib versus control (DMSO)): -1.178
- log2FoldChange (gene CES3, ribociclib versus control (DMSO)): 1.002
- log2FoldChange (gene CHAF1A, ribociclib versus control (DMSO)): -1.142
